Reference: ChEMBL document CHEMBL4706717, “Covalent Occlusion of the RORγt Ligand Binding Pocket Allows Unambiguous Targeting of an Allosteric Site” (ACS Med Chem Lett, 2021)

Sequences of proteins named here, by UniProt entry; tags and fusion partners are left off. A change or cut given only in a name is not applied to a line headed by its entry.
UniProt P51449: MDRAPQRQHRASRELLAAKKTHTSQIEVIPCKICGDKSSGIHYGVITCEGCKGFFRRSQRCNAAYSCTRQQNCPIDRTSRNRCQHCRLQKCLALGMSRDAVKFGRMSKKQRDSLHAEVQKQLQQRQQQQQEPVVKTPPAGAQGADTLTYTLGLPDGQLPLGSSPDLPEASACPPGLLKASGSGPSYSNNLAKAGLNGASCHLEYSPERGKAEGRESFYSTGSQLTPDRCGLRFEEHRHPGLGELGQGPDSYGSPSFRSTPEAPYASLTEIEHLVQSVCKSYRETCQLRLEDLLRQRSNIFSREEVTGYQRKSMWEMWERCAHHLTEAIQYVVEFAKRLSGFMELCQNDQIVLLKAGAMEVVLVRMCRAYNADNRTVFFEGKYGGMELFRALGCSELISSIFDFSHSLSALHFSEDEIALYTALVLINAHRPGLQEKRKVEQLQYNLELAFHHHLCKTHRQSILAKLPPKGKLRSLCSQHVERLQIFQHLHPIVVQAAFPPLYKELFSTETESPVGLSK

Key:
[1] = molecular target: T1, Nuclear receptor ROR-gamma (Homo sapiens, UniProt P51449); test: (§1) Orthosteric agonist activity at 2-chloro-5-nitro-N-(2-(trifluoromethyl)phenyl)benzamide-ligated recombinant human N-terminal His6-tagged RORgammat ligand binding domain (265 to 518 residues) expressed in Escherichia coli BL21 (DE3) assessed as increase in coactivator, N-terminal biotinylated SRC-1 box2 peptide recruitment in presence of 2-chloro-5-nitro-N-(2-(trifluoromethyl)phenyl)benzamide incubated for 60 mins by TR-FRET assay
Method in brief: (§2)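 Dose response: probe and His6-RORγt LBD (265-518, 20 μM) co-titrated (1.4x series, top 10 eq, 200 μM) in pH 5.8 TRIS/NaCl/CHAPS/BSA buffer overnight (4°C or RT per compound). Then 100 nM LBD, 100 nM biotin-SRC-1 box2, Tb anti-His, d2-streptavidin in HEPES pH 7.5, 150 mM NaCl, 5 mM DTT, 0.1% BSA, 0.1 mM CHAPS, 1% DMSO; top probe 1 μM; 60 min RT; 665/620 nm ratio; four-parameter fit; triplicate, ≥2 experiments.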

[2] = molecular target: T1, Nuclear receptor ROR-gamma; test: as §1, with “GW9662-ligated” for “2-chloro-5-nitro-N-(2-(trifluoromethyl)phenyl)benzamide-ligated”, “GW9662” for “2-chloro-5-nitro-N-(2-(trifluoromethyl)phenyl)benzamide”; method in brief: as §2
[3] = molecular target: T1, Nuclear receptor ROR-gamma; conditions: filed as agonist, dose 10.0 µM
[4] = molecular target: T1, Nuclear receptor ROR-gamma; test: Orthosteric agonist activity at 2-chloro-5-nitro-N-o-tolylbenzamide-ligated recombinant human N-terminal His6-tagged RORgammat ligand binding domain (265 to 518 residues) expressed in Escherichia coli BL21 (DE3) assessed as increase in coactivator, N-terminal biotinylated SRC-1 box2 peptide recruitment in presence of 2-chloro-5-nitro-N-o-tolylbenzamide incubated for 60 mins by TR-FRET assay; method in brief: as §2
[5] = molecular target: T1, Nuclear receptor ROR-gamma; test: Orthosteric agonist activity at 2-chloro-N-(2,6-dimethylphenyl)-5-nitrobenzamide-ligated recombinant human N-terminal His6-tagged RORgammat ligand binding domain (265 to 518 residues) expressed in Escherichia coli BL21 (DE3) assessed as increase in coactivator, N-terminal biotinylated SRC-1 box2 peptide recruitment in presence of 2-chloro-N-(2,6-dimethylphenyl)-5-nitrobenzamide incubated for 60 mins by TR-FRET assay; method in brief: as §2

ΔTm [3]	Structure (SMILES)	Activity [1]	Activity [2]	Activity [4]	Activity [5]
-1.5 °C	CC(C)=CCC[C@@H](C)[C@H]1CC[C@H]2[C@@H]3CC=C4C[C@@H](O)CC[C@]4(C)[C@H]3CC[C@]12C	inactive	inactive	inactive	inactive
–	CC(C)CCC[C@](C)(O)[C@H]1CC[C@H]2[C@@H]3CC=C4C[C@@H](O)CC[C@]4(C)[C@H]3CC[C@@]21C	inactive	inactive	inactive	inactive

Activity calls are given as the source filed them. The rule behind the calls is not given here.
